Experimental findings from EP4610267A1, “CYCLIC DINUCLEOTIDES AND CONJUGATES THEREOF WITH ANTIBODIES” (priority 2024, dated 2025) are described below.

The nature of this series: In vitro mouse plasma stability of antibody-CDN conjugates (payload CDN 2.2 retention on mAb by LC-MS). It is filed as in vitro ADME. As to conditions: monoclonal antibody: anti Her2 mA2, 37°C, retention of CDN 2.2 on mAb.

For the substance “(2S)-N-((2S)-1-((4-((((6R,8R,9S,13aR,15R,16R,16aR,17R)-15-(6-amino-9H-purin-9-yl)-16,17-difluoro-3-mercapto-3,11-dioxido-8-(6-oxo-1,6-dihydro-9H-purin-9-yl)decahydro-6,9-methanofuro[3,2-m][1,3,6,9,12]pentaoxa[2,10]diphosphacyclopentadecin-11-yl)thio)methyl)phenyl)amino)-1-oxopropan-2-yl)-2-(2-(2,5-dioxo-2,5-dihydro-1H-pyrrol-1-yl)acetamido)-3-methylbutanamide [Compound 3.19, reference compound]”, the “Mouse plasma T ½” value was found to be 96 h.
